Active and inactive are the calls of the source. No cut-off for these calls is given here.

Test [1] addresses T1, Anoctamin-1 (Homo sapiens) (UniProt Q5XXA6).
T1 sequence (whole entry): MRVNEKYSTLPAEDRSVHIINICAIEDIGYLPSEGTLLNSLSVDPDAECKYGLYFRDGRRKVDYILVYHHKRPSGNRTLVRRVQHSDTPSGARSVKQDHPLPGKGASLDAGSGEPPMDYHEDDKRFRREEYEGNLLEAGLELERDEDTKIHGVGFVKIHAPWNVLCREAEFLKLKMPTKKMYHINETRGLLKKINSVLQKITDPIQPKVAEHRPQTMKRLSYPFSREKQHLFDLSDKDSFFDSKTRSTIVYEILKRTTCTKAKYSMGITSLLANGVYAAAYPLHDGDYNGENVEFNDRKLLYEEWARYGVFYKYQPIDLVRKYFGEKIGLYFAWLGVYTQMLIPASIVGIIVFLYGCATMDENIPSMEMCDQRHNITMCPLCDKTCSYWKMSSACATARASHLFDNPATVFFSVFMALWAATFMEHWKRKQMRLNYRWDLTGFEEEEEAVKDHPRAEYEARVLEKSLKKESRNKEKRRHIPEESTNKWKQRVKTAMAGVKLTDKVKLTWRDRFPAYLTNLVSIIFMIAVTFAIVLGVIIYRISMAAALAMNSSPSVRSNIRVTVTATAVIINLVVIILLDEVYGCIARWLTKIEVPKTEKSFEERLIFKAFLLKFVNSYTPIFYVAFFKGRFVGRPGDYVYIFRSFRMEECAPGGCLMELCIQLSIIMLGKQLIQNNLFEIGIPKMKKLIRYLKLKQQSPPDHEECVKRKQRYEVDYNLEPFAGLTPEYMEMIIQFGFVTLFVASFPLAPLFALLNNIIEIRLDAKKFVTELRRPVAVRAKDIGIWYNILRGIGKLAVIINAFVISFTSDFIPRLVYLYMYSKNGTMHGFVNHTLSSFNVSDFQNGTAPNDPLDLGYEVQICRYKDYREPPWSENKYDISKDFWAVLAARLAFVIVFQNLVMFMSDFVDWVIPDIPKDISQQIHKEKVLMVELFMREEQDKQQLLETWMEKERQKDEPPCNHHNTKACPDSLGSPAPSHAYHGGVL
Description: Activation of human ANO1 expressed in rat FRT cells assessed as increase in calcium activated apical membrane chloride current at 30 uM incubated for 20 mins in presence of ATP by patch-clamp assay. It counts as cell-based. (In patch-clamp work, channel activity is measured electrically.)

For test [2], the target named is T1, Anoctamin-1 (Homo sapiens). The experiment in a line: Activation of human ANO1 expressed in rat FRT cells assessed as increase in calcium activated apical membrane chloride current at 30 uM incubated for 20 mins in presence of ATP and Ani9 by patch-clamp assay. The format is cell-based.

Take `COc1ccc(-c2ccnc3cc(C(=O)N4CCN(C(=O)c5ccccc5)[C@@H](C)C4)nn23)cc1OC`: the outcome in test [1] and in test [2] was inactive.

(Values after ChEMBL document CHEMBL5316288, “Synthetic Strategies for Improving Solubility: Optimization of Novel Pyrazolo[1,5-a]pyrimidine CFTR Activator That Ameliorates Dry Eye Disease” (J Med Chem, 2023).)
